Source: paper PMC5362750, “Discovery of Potent, Selective, and Orally Bioavailable Small-Molecule Modulators of the Mediator Complex-Associated Kinases CDK8 and CDK19” (Journal of Medicinal Chemistry, 2016)

Assay: Thermodynamic solubility determination
Type: physicochemical
Conditions: phosphate buffer, pH 7.4, TFA salt, pH 7.4, 37 °C; read-out: Solubility Therm.
Method: Thermodynamic Solubility Determination
The test substance is dissolved in the solvent system of interest at a constant temperature. HPLC determination of the concentration of the solute in the solution, which must not contain any undissolved particles, is used to quantify the solubility. Composition of standard buffer solutions:
Phosphate buffer pH 7.4: 50 mL of 0.2 M monobasic potassium phosphate solution were placed in a 200-mL volumetric flask, 39.1 mL of 0.2 M sodium hydroxide solution was added followed by water to the appropriate volume. Preparation of the standard solution: The test substance (generally 1 mg) was placed into an amber-glass volumetric flask and dissolved completely in a solution of acetonitrile/methanol (1:1; V/V). If the substance is not soluble in this solvent, a different solvent may be used. The target concentration is between 0.1 and 0.2 mg/mL. The standard solution and test sample (see below) use the same test substance. […] After 24 hours, the suspension was filtered and the concentration of dissolved substance determined by HPLC (see Chromatographic Conditions). If the substance has completely dissolved, the result is stated as > x μg/mL, calculated from the sample weight taken and the volume of solvent used. […]

## Cn1ncc2cc(-c3cnc(N)c(Cl)c3N3CCC4(CC3)CNC(=O)O4)ccc21 [Compound 110]
  solubility at 24 h: 6 µg/mL
